GLP1R cytotox: cytotoxicity counter-screen for GLP-1 receptor inverse agonists; HEK293 cAMP-luciferase reporter cells, luminescence, 24 h; Potency, µM (series often up to 38.3 µM), for the others: at the top dose activity change, negative = inhibition, hits mostly inhibitors; 410,000 compounds, 0.13% hits;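 further: loss of luciferase light is scored as toxicity; potency means the concentration at half of the fitted maximal effect; on the % scale 0 is the no-effect control and ±100 the full control effect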
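Here, cytotoxicity is scored as loss of luminescence. The MLSMR collection was tested on cells seeded in medium containing 10% Nu serum, with a 24 hr compound exposure preceded by 12 hours of culture.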
GLP1R inv ag: acts as inverse agonist at human GLP-1 receptor; 410,000 compounds, 1.6% hits; Potency, µM (highest dose often 38.3 µM), inactives show at the highest dose activity change, negative = inhibition, actives largely listed as inhibitors; HEK293 GLP-1R CRE-luciferase, luminescence, 24 h; GLP-1R form is constitutively active; further: potency means the concentration at half of the fitted maximal effect; on the % scale 0 is the no-effect control and ±100 the full control effect; nearly all actives have a fitted effect of over 55% in size
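Constitutively active GLP-1R drives a cAMP-responsive luciferase in stably transfected HEK293 cells; test compounds are added after overnight (12 h) attachment and left 24 hr, and signal loss in luminescence marks inhibition.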
Pin1 inhibitor: human Pin1 inhibition; Q13526; Pin1 FP peptide displacement, HiFluor488, 10 min; Potency, µM (doses to about 115 µM), without a hit: at the highest dose activity, negative = inhibition, usual class: inhibitors; 390,000 compounds, 0.009% hits; active means well fitted inhibition curve with a large enough effect in the polarisation, with a control signal flat, not every such curve was filed as active; inconclusive means small, poorly fitted or top-dose-only effect, or effect the other way, or a change in a side signal; inactive means no such curve, though single readings can be large or run the other way; the % refers to the polarisation; further: potency means the concentration at half of the fitted maximal effect; on the % scale 0 is the no-effect control and ±100 the full control effect
GLP-1R agonist: activates the human GLP-1 receptor. P43220. HEK293 GLP-1R CRE-luciferase, luminescence, 4-6 h; cells express a hypersensitive GLP-1R form. Potency, µM (top dose mostly 45.6 µM), for the others: at the top dose activation, actives largely listed as activators. 380,000 compounds, 0.007% hits. AID 624172; further: potency means the concentration at half of the fitted maximal effect; % of control where 0% means no effect
PTHR1 agonist: PTHR1 (human) receptor agonism | Potency, µM (highest dose often 115 µM), without a hit: at the highest dose activation, usual class: activators | Q03431 | 410,000 compounds, 0.075% hits | HEK293 GP2 PTHR1 cells, GloSensor cAMP luminescence, 1 h | AID 743266; further: potency means the concentration at half of the fitted maximal effect; nearly all actives have a fitted effect of over 55% in size
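HEK-293-derived GP2 cells expressing PTHR1 and a GloSensor cAMP reporter, 3,000/well, plated overnight, given luciferin plus IBMX (each 0.5 mM as added) for 1 h at 37 °C, then compound for 1 h at 37 °C. Luminescence was read after 15 min at room temperature.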
miR-21 reporter: miR-21 reporter, rising signal | HeLa miR-21 FLuc reporter, luciferase, 48 h | Potency, µM (top dose mostly 38.3 µM), inactives show at the top dose reporter change, positive = more light | 340,000 tested, under 10 active | AID 2288; active = well fitted rising curve with a large enough effect; inconclusive = small, poorly fitted or top-dose-only effect; inactive = no such curve, though single readings can be large or run the other way;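 further: % of control where 0% means no effect; miR-21 action dims this reporter so a rising signal means less miR-21 action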
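Using DMEM plus 10% FBS, HeLa miR-21-FLuc cells are incubated with test compounds (final up to about 40uM) for 48 hours; firefly luciferase signal is then imaged following reagent-mediated lysis.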
Numbers without * were called inactive; i = inactive; ? = inconclusive; · = not tested or not shown; [ ] = dose if it differs, or a comment. Compounds with a hit are over-represented: about 1.7% of the library has one in this group of screens. Unless noted, the call rests on the fitted dose curve; in most records, active means well fitted curve in the direction sought with a large enough effect; inconclusive means small, poorly fitted or top-dose-only effect, or another doubt; inactive means no such curve, though single readings can be large; an effect the other way counts as inactive or inconclusive.

Sample of the layout:
Letters – A = GLP1R cytotox; B = GLP1R inv ag; C = Pin1 inhibitor; D = GLP-1R agonist; E = PTHR1 agonist; F = miR-21 reporter
1) Cc1ccc(NC(=S)NCc2ccc3c(c2)OCO3)cc1
  A: ?; B: ?; C: 0.5%; D: 20.3%; E: i; F: -11.6%
2) S=C(SSC(=S)N1CCCCC1)N1CCCCC1
  A: ·; B: ·; C: ·; D: -7.0%; E: ·; F: ·
3) CCCSc1cc(OC)c(CCN)cc1OC
  A: ·; B: ·; C: ·; D: 8.5%[110 µM]; E: ·; F: ·

This part in full (from the top)
Letters – A = GLP1R cytotox; B = GLP1R inv ag; C = Pin1 inhibitor; D = GLP-1R agonist; E = PTHR1 agonist; F = miR-21 reporter
1) Cc1ccc(NC(=S)NCc2ccc3c(c2)OCO3)cc1
  A: ?; B: ?; C: 0.5%; D: 20.3%; E: i; F: -11.6%
2) S=C(SSC(=S)N1CCCCC1)N1CCCCC1
  A: ·; B: ·; C: ·; D: -7.0%; E: ·; F: ·
3) CCCSc1cc(OC)c(CCN)cc1OC
  A: ·; B: ·; C: ·; D: 8.5%[110 µM]; E: ·; F: ·
4) CCOC(=O)c1c(-c2ccc(OC)cc2)oc2ccc(OC(=O)N(C)C)cc12
  A: -7.9%; B: 5.62µM*; C: -0.3%; D: 6.4%; E: -23.4%; F: 13.4%
5) C[C@H](CO)N1C[C@H](C)[C@@H](CN(C)S(=O)(=O)c2cccs2)Oc2ccc(NC(=O)Nc3ccc(C(F)(F)F)cc3)cc2C1=O
  A: ?; B: 8.91µM*; C: 14.8%; D: -1.3%; E: i; F: ·
6) COc1ccc(C(=O)N2CCN(c3nc4c(OC)cccc4s3)CC2)cc1OC
  A: 0.8%; B: -18.8%; C: -2.7%; D: ·; E: -36.5%; F: 12.0%
7) Cn1cc(/C=N/n2cnc3scc(-c4ccccc4)c3c2=O)c2ccccc21
  A: ?; B: 5.01µM*; C: 14.9%; D: -7.5%; E: -5.2%; F: 20.5%
8) O=[As]O[As]=O (stereo not drawn)
  A: ·; B: ·; C: ·; D: 15.6%; E: ·; F: ·
9) COC(=O)C1=C(c2ccc(-c3ccccc3)c(F)c2)C[C@@H]2CC[C@H]1N2C(=O)N1CCC(O)CC1
  A: -42.4%; B: 12.6µM*; C: 3.6%; D: -4.5%; E: -22.4%; F: ·
10) COC(=O)C1=C(c2ccc(-c3ccccc3)c(F)c2)C[C@@H]2CC[C@H]1N2C(=O)N1CCCCC1
  A: 2.0%; B: 11.2µM*; C: ?; D: 6.0%; E: -47.6%; F: ·
11) COC(=O)C1=C(c2ccc(-c3ccccc3)c(F)c2)C[C@@H]2CC[C@H]1N2C(=O)N1CCCC1
  A: -9.8%; B: ?; C: -6.3%; D: 1.1%; E: -27.2%; F: ·
12) COc1ccc(CCNc2nccn(-c3ccc(C)c(C)c3)c2=O)cc1OC
  A: 4.2%; B: -17.2%; C: 3.1%; D: ·; E: -42.1%; F: 2.1%
13) CCC1CC2CC3c4[nH]c5ccc(OC)cc5c4CCN(C2)C13 (stereo not drawn)
  A: ·; B: ·; C: ·; D: 2.3%[96 µM]; E: ·; F: ·
14) Cc1ccc2nc(-c3ccccc3)cc(C(=O)N3CCN(c4ccccc4O)CC3)c2c1
  A: ?; B: 10µM*; C: -0.5%; D: -7.4%; E: -22.8%; F: ·
15) COc1c(C)cc(C(=O)C2CCCN(Cc3ccccn3)C2)cc1C (stereo not drawn)
  A: ?; B: 2.82µM*; C: -0.3%; D: 20.3%; E: i; F: 0.1%
16) CC12CCC3C4CCC(=O)C(O)=C4CCC3C1CCC2OC(=O)CCC1CCCC1 (stereo not drawn)
  A: ·; B: ·; C: ·; D: -4.1%; E: ·; F: ·
17) C[C@]12CC[C@@H](O)CC1=CCC1C2CC[C@@]2(C)C1CC[C@@H]2N (stereo partly drawn)
  A: -13.6%; B: 11.2µM*; C: -4.3%; D: 7.5%; E: i; F: ·
18) COc1ccc(OC)c(CC(C)N)c1 (stereo not drawn)
  A: ·; B: ·; C: ·; D: -1.7%[110 µM]; E: ·; F: ·
19) CC(C)C(=O)N1CCC(CN=Cc2c(O)n(C3CCCCC3)c(=O)n(C3CCCCC3)c2=O)CC1
  A: -2.1%; B: 2.82µM*; C: ?; D: -0.9%; E: i; F: 3.8%
20) CCCN(CCC)C(=O)Cc1c(-c2ccc(Cl)cc2)nc2ccc(Cl)cn12
  A: ·; B: ·; C: ·; D: 4.2%; E: ·; F: ·
21) CC(=O)OC1CC(OC2C(O)CC(OC3C(O)CC(O[C@H]4CC[C@]5(C)C6CC[C@]7(C)[C@@H](C8=CC(=O)OC8)[C@@H](O)C[C@]7(O)[C@@H]6CC[C@@H]5C4)OC3C)OC2C)OC(C)C1OC1OC(CO)C(O)C(O)C1O (stereo partly drawn)
  A: ·; B: ·; C: ·; D: -11.5%; E: ·; F: ·
22) CCCCCCCCCCCCCCCCn1cc[n+](C)c1
  A: ?; B: 7.08µM*; C: 3.6%; D: -3.1%; E: -30.8%; F: ?
23) Cc1cccc(NC(=O)Oc2ccc(Cl)c3cccnc23)c1
  A: ?; B: 10µM*; C: ·; D: 14.4%; E: i; F: ·
24) COc1ccc(CNC(=O)Cn2c(SCC(=O)Nc3ccc(C)c(C)c3)nc3ccccc32)cc1
  A: -26.8%; B: ?; C: -0.4%; D: ·; E: ?; F: -8.7%
25) O=c1c2cc(NC(=S)NCCCN3CCC(Cc4ccccc4)CC3)ccc2nc2n1CCCCC2
  A: ?; B: 2.24µM*; C: 1.6%; D: 9.9%; E: -30.0%; F: 9.8%

Screening data as filed in PubChem BioAssay.
